# Reference: PubChem BioAssay AID1974 (The Scripps Research Institute Molecular Screening Center, 2009)
# The chains behind the UniProt entries cited, without tags or fusion partners.
# UniProt P78417, whole entry: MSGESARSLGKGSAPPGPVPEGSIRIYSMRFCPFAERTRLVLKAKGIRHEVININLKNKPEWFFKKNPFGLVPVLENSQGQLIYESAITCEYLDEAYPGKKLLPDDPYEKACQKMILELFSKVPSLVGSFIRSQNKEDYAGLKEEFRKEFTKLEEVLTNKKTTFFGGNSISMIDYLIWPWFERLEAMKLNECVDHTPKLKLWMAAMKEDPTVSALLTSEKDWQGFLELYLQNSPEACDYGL
# The list shows a part of the results, in another mix than the full data. Some salts and complexes are drawn in separate pieces, as the source files them; their charges need not balance. Active and inactive are the calls of the source.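 The calls were made as follows: active = inhibition above the campaign mean inhibition plus 3 SD (cut at about 35% in these data); inactive = the rest.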
# Target: Glutathione S-transferase omega-1 (Homo sapiens) (UniProt P78417)
# Assay: inhibitors of recombinant GSTO1, primary screen, counter-screen for RBBP9 inhibitor project, biochemical, fluorescence polarization (AID 1974);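 also: 0% = GSTO1-1 with DMSO and 100% = wells lacking GSTO1-1 enzyme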
# Details: recombinant GSTO1, activity-based probe fluorescence polarization; at 5.96 µM; hits give high values
row,Structure (SMILES),inhibition
1,Cc1ccccc1NP(C)(=O)Nc1ccccc1C,inactive: 8.37%
2,CP(=O)(Nc1ccc2c(c1)OCCO2)Oc1ccccc1 (configuration not stated),inactive: 5.28%
3,CCOP(C)(=S)SCC(=O)NC(C)(CC)C(=O)O (configuration not stated),inactive: -14.7%
4,CP(=O)(Nc1ccc(SC(F)(F)F)cc1)Oc1ccc(F)cc1 (configuration not stated),inactive: 5.87%
5,O=[N+]([O-])c1cc([N+](=O)[O-])c(NCC2CCS(=O)(=O)C2)c([N+](=O)[O-])c1 (configuration not stated),inactive: 12.7%
6,COc1ccc(NP(C)(=O)Oc2ccccc2OC)cc1 (configuration not stated),inactive: 9.95%
7,CN(C)CCOC(=O)C(O)(c1ccccc1)C1CCCCC1 (configuration not stated),inactive: 14.1%
8,COc1ccc(OP(C)(=O)Nc2cccc(Br)c2)cc1 (configuration not stated),inactive: -6.17%
9,O=[N+]([O-])c1cc([N+](=O)[O-])c(OC2CCCCC2O)c([N+](=O)[O-])c1 (configuration not stated),inactive: -4.58%
10,CCCCCOc1ccc(NP(C)(=O)Oc2ccc(Cl)cc2Cl)cc1 (configuration not stated),inactive: 0.75%
11,CP(=O)(Nc1ccccc1)Oc1ccc(F)cc1 (configuration not stated),inactive: 2.77%
12,CCN(CC)CCCOC(=O)C(O)(c1ccccc1)C1CCCCC1 (configuration not stated),inactive: 5.22%
13,COc1ccc(OP(C)(=O)Nc2ccc(SC(F)(F)F)cc2)cc1 (configuration not stated),inactive: 9.35%
14,CCOC(=O)c1ccc(NP(C)(=O)Oc2ccc(F)cc2)cc1 (configuration not stated),inactive: 1.67%
15,COc1ccc2c(c1O)-c1c(O)c(OC)cc3c1[C@H](C2)[N+](C)(C)CC3.O=[N+]([O-])c1cc([N+](=O)[O-])c([O-])c([N+](=O)[O-])c1[O-],inactive: 12.4%
16,O=C(OCCN1CCN(CCOCc2ccccc2)CC1)C(O)(c1ccccc1)c1ccccc1,inactive: 7.12%
17,O=C(OC1CN2CCC1CC2)c1ccc([N+](=O)[O-])cc1 (configuration not stated),inactive: -5.22%
18,CC(C)c1ccc(OP(C)(=O)Nc2ccc(SC(F)(F)F)cc2)cc1 (configuration not stated),inactive: -2.08%
19,CP(=O)(Nc1ccccc1F)Oc1ccccc1 (configuration not stated),inactive: -0.88%
20,CCc1ccc(OP(C)(=O)O)cc1,inactive: 8.72%
21,COc1ccccc1OP(C)(=O)Nc1ccc(C)cc1C (configuration not stated),inactive: -0.94%
22,CP(=O)(Nc1ccccn1)Oc1ccccc1 (configuration not stated),inactive: 0.33%

row,Structure (SMILES),inhibition
1,O=[N+]([O-])c1cc([N+](=O)[O-])c(Nc2ccccn2)c([N+](=O)[O-])c1,active: 84.8%
2,Cc1c(NP(C)(=O)Oc2ccc(C(C)C)cc2)c(=O)n(-c2ccccc2)n1C (configuration not stated),inactive: 4.76%
3,CN(C)CCOC(=O)C(O)(c1ccccc1)C1CCCC1 (configuration not stated),inactive: 2.18%
4,COc1ccccc1OP(C)(=O)Nc1ccc(Br)cc1 (configuration not stated),inactive: -1.81%
5,CP(=O)(OCCOc1ccccc1)OCCOc1ccccc1,inactive: 12.2%
6,CP(=O)(Nc1ccc(Cl)cc1Cl)Oc1ccccc1 (configuration not stated),inactive: -1.37%
7,Cc1nc2ccc3ccccc3c2o1.O=[N+]([O-])c1cc([N+](=O)[O-])c(O)c([N+](=O)[O-])c1,inactive: 19%
8,COc1ccc(OP(C)(=O)Nc2ccccc2Br)cc1 (configuration not stated),inactive: -0.98%
9,COc1ccccc1OP(C)(=O)Nc1ccc(C)c(C)c1 (configuration not stated),inactive: 5.9%
10,Cc1cc(C)cc(OP(C)(=O)Nc2cccc(C(F)(F)F)c2)c1 (configuration not stated),inactive: -1.64%
11,CP(=O)(OC12CC3CC(CC(C3)C1)C2)OC12CC3CC(CC(C3)C1)C2,inactive: 4.02%
12,CCOC(=O)c1ccc(NP(C)(=O)Oc2ccc(Cl)cc2)cc1 (configuration not stated),inactive: 4.63%
13,Nc1ccc2c(ccc3cccnc32)n1.O=[N+]([O-])c1cc([N+](=O)[O-])c(O)c([N+](=O)[O-])c1,inactive: -1.55%
14,CN(C)C(=O)c1c([N+](=O)[O-])cc([N+](=O)[O-])cc1[N+](=O)[O-],inactive: 34.3%
15,CP(=O)(Nc1ccc(Cl)cc1)Oc1ccc(F)cc1 (configuration not stated),inactive: -1.21%
16,CC(C)(C)c1ccc(OP(C)(=O)O)cc1,inactive: -1.06%
17,COc1ccccc1OP(C)(=O)Nc1ccccc1Br (configuration not stated),inactive: -1.87%
18,CCc1ccc(OP(C)(=O)Nc2cccnc2)cc1 (configuration not stated),inactive: -0.46%
19,CP(=O)(Oc1ccccc1)N1CCOC1=O (configuration not stated),inactive: -3.14%
20,O=C(OCCCN1CCCC1)C(O)(c1ccccc1)C1CCCCC1 (configuration not stated),inactive: 10%
21,COc1ccccc1OP(C)(=O)Nc1c(C)n(C)n(-c2ccccc2)c1=O (configuration not stated),inactive: 1.22%
22,COc1ccc(OP(C)(=O)Nc2ccc(Br)cc2)cc1 (configuration not stated),inactive: 1.1%

row,Structure (SMILES),inhibition
1,CCN(CC)CC(O)COC(=O)C(O)(c1ccccc1)C1CCCCC1 (configuration not stated),inactive: -2.01%
2,CP(=O)(Nc1ccccn1)Oc1ccc(Cl)cc1 (configuration not stated),inactive: 1.32%
3,CCOP(C)(=S)SCC(=O)NC(C)C(=O)O (configuration not stated),inactive: 0.94%
4,O=[N+]([O-])c1cc([N+](=O)[O-])c(O)c([N+](=O)[O-])c1.c1ccc(Oc2ccncc2)cc1,inactive: -1.19%
5,CCOC(=O)c1ccc(NP(C)(=O)Oc2ccc(OC)cc2)cc1 (configuration not stated),inactive: -4.77%
6,Cc1cc(C)cc(OP(C)(=O)Nc2ccc(SC(F)(F)F)cc2)c1 (configuration not stated),inactive: -2.5%
7,CCc1ccc(OP(C)(=O)N2CCN(c3ccc([N+](=O)[O-])cc3)CC2)cc1 (configuration not stated),inactive: 3.08%
8,CP(=O)(NC(=O)Nc1ccccc1)Oc1ccccc1 (configuration not stated),inactive: -1.67%
9,CP(=O)(Oc1ccccc1)OC(c1ccccc1)C(F)(F)F (configuration not stated),inactive: -4.32%
10,CP(=O)(Nc1ccc(SC(F)(F)F)cc1)Oc1ccc(Cl)cc1 (configuration not stated),inactive: 7.16%
11,Cc1cccc(C)c1OP(C)(=O)Nc1ccc(SC(F)(F)F)cc1 (configuration not stated),inactive: -1.69%
12,COc1ccccc1OP(C)(=O)Nc1ccccc1 (configuration not stated),inactive: 7.01%
13,CP(=O)(Nc1ccccc1Br)Oc1ccccc1 (configuration not stated),inactive: -3.4%
14,CP(=S)(Nn1cnnc1)Oc1ccccc1 (configuration not stated),inactive: 8.44%
15,COc1ccc(OP(C)(=O)Nc2cccc(F)c2)cc1 (configuration not stated),inactive: 3.79%
16,COc1ccccc1OP(C)(=O)Nc1cc(Cl)ccc1C (configuration not stated),inactive: -1.54%
17,Cc1cc(C)cc(OP(C)(N)=O)c1 (configuration not stated),inactive: -5.65%
18,CCOC(=O)c1ccc(NP(C)(=O)Oc2ccccc2)cc1 (configuration not stated),inactive: 2.35%
19,Cc1ccc(NP(C)(=O)Oc2ccccc2)c(C)c1 (configuration not stated),inactive: 1.04%
20,COc1ccccc1OP(C)(=O)Nc1ccc(C)cc1 (configuration not stated),inactive: 2.67%
21,Cc1cccc(C)c1OP(C)(N)=O (configuration not stated),inactive: -4.63%
22,CC(C)(C)c1ccc(OP(C)(=O)Nc2ccc(SC(F)(F)F)cc2)cc1 (configuration not stated),inactive: 2.54%

row,Structure (SMILES),inhibition
1,O=[N+]([O-])c1ccc2c(c1)C=Nc1ccccc1O2,inactive: 1.07%
2,O=[N+]([O-])c1cc([N+](=O)[O-])c(Nc2cccnc2)c([N+](=O)[O-])c1,active: 40.2%
3,CCN(CC)CCCOC(=O)C(O)(c1ccccc1)c1ccccc1,inactive: 2.3%
4,CP(=O)(Nc1cccc(Br)c1)Oc1ccccc1 (configuration not stated),inactive: 7.7%
5,Cc1cc(C)cc(OP(C)(=O)Nc2ccccn2)c1 (configuration not stated),inactive: 2.1%
6,Cc1ccc(C)c(NP(C)(=O)Oc2ccccc2)c1 (configuration not stated),inactive: 11.3%
7,Cc1cc(C)cc(OP(C)(=O)Nc2ccc(C)cc2C)c1 (configuration not stated),inactive: -6.67%
8,CCOC(=O)c1ccc(NP(C)(=O)Oc2cc(C)cc(C)c2)cc1 (configuration not stated),inactive: 3.57%
9,COc1ccccc1OP(C)(=O)Nc1cccc(Br)c1 (configuration not stated),inactive: -2.77%
10,CC1=NCCc2c1[nH]c1ccccc21.O=[N+]([O-])c1cc([N+](=O)[O-])c(O)c([N+](=O)[O-])c1,inactive: 0.94%
11,O=C(O)c1cccc(Nc2c([N+](=O)[O-])cc([N+](=O)[O-])cc2[N+](=O)[O-])c1,active: 37.3%
12,CP(=O)(Nc1ccc(SC(F)(F)F)cc1)Oc1ccccc1 (configuration not stated),inactive: 9.61%
13,CCCOc1ccc(NP(C)(=O)Oc2ccc(Cl)cc2)cc1 (configuration not stated),inactive: -4.66%
14,CN1CCCCC1COC(=O)C1(O)c2ccccc2CCc2ccccc21 (configuration not stated),inactive: 1.73%
15,COc1ccccc1OP(C)(=O)Nc1c(C)cccc1C (configuration not stated),inactive: 3.72%
16,CCOC(=O)C(CC)C1=NC(C)(C)Cc2ccccc21.O=[N+]([O-])c1cc([N+](=O)[O-])c(O)c([N+](=O)[O-])c1 (configuration not stated),inactive: 11.2%
17,O=[N+]([O-])c1cc([N+](=O)[O-])c(Nc2nnnn2CCO)c([N+](=O)[O-])c1,inactive: 8.63%
18,CC1=C2N=C(C=C3N=C(C(C)=C4[N-][C@@](C)([C@@H]5N=C1[C@](C)(CCC(=O)NC[C@@H](C)OP(=O)([O-])O[C@H]1[C@@H](O)[C@@H](n6cnc7cc(C)c(C)cc76)O[C@@H]1CO)[C@H]5CC(N)=O)[C@@](C)(CC(N)=O)[C@@H]4CCC(N)=O)[C@@](C)(CC(N)=O)[C@@H]3CCC(N)=O)C(C)(C)[C@@H]2CCC(N)=O.[C-]#N.[Co+3],active: 77.1%
19,Cc1nc2ccc3ccccc3c2s1.O=[N+]([O-])c1cc([N+](=O)[O-])c(O)c([N+](=O)[O-])c1,inactive: -10.3%
20,O=[N+]([O-])c1cc([N+](=O)[O-])c(-c2cnn(-c3ccccc3)c2)c([N+](=O)[O-])c1,inactive: 6.15%
21,O=[N+]([O-])c1cc([N+](=O)[O-])c(-n2nnc3ccccc32)c([N+](=O)[O-])c1,inactive: -6.04%
